Experimental data published in paper PMC8704648 (Pharmaceutics, 2021).

How the values were obtained:
[1] = for Log(Ks): from pKs = pKA + pKB − pKw; for pKa of the Acid: pKa determined for the L-proline alkyl ester (cation) of the salt; for Percent Salt Formed: predicted degree of salt formation from log(Ks)
[2] = shake flask
[3] = after 24 h of penetration, mean ± SD, n = 3

| Substance | Log(Ks) [1] | pKa of the Acid [1] | pKs ([1]; pKs = pKA + pKB − pKw) | logP, n-octanol-water partition coefficient [2] | mass accumulated in porcine skin [3] | Percent Salt Formed [1] |
| --- | --- | --- | --- | --- | --- | --- |
| L-proline ethyl ester naproxenate [[ProOEt][NAP]] | 5.48 | 9.63 | −5.48 | 0.898 ± 0.0148 |  |  |
| L-proline propyl ester naproxenate [[ProOPr][NAP]] | 5.80 | 9.95 |  | 0.987 ± 0.0189 | 650.62 ± 69.83 | >99% |
| L-proline butyl ester naproxenate [[ProOBu][NAP]] | 5.82 | 9.97 |  | 1.094 ± 0.0218 |  | >99% |
| L-proline isopropyl ester naproxenate [[ProOiPr][NAP]] | 5.60 | 9.75 |  | 0.921 ± 0.0373 | 768.06 ± 81.05 | >99% |
